Results taken from paper PMC7723054.
Some of the results follow.

T1: LIN28A (human?, UniProt Q9H9Z2 1-209)
T1 sequence: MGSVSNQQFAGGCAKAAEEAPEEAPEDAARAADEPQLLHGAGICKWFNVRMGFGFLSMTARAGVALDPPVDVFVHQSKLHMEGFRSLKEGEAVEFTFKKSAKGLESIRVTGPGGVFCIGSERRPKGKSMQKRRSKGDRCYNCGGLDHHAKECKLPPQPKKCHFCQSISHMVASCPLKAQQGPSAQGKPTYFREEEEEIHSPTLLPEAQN

T2: CIRBP (Homo sapiens, UniProt Q14011 1-172)
T2 sequence: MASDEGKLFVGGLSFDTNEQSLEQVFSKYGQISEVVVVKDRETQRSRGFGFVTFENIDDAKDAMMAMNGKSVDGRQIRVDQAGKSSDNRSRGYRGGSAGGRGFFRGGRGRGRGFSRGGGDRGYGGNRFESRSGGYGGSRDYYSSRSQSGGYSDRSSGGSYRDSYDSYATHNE

T3: DHX36 (Homo sapiens, UniProt Q9H2U1 1-1008)
T3 sequence: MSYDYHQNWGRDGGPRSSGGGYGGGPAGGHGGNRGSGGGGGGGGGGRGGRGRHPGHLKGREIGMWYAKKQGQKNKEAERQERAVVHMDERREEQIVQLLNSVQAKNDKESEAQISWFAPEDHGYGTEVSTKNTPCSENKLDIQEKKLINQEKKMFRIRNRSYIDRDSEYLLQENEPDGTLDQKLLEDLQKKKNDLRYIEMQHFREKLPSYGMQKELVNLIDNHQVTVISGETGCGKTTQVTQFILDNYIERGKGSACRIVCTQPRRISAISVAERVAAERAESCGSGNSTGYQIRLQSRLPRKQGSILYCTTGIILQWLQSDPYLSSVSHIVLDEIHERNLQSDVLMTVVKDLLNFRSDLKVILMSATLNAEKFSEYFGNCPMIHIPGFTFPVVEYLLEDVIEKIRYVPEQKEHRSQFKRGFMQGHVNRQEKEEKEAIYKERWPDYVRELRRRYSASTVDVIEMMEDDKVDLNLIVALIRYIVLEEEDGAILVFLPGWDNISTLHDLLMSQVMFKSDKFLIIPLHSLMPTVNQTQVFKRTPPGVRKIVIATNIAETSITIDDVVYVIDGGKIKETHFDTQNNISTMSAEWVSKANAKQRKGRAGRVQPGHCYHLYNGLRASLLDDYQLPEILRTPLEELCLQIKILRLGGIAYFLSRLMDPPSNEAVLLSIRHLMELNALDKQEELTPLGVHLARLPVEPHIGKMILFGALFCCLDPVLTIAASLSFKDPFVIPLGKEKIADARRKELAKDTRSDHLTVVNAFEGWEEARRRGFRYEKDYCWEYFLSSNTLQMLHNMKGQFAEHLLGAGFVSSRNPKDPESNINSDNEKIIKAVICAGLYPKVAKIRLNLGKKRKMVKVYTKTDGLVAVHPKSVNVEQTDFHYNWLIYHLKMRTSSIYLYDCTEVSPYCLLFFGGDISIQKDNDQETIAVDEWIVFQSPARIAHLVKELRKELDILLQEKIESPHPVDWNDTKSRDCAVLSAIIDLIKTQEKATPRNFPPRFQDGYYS

B1: hsa-let-7f-2 (structured_RNA)
RNA: GGGACAAGCGUUAAGGCAAGCUACCCACGGUGUACGAAGUUUCAGCAUAGUUUUAGGGUCAUACCCCAUCUUGGAGAUAACUAUGCUGAAGCUUCGUGCAC
B2: hsa-mir-302a (structured_RNA)
RNA: GGGACGUGGUCGCAACUUUAGUGAACACGGUGUACGAAGUUUCAGCCUUGCUUUGAAACUAAAGAAGUAAGGCUGAAGCUUCGUGCAC
B3: hsa-mir-18b (structured_RNA)
RNA: GGGAAGAAACGUACCGAGUGACCCACCCGGUGUACGAAGUUUCAGCUGCAGUUAGUGAAGCAGCUUAGAAUCUACUGCCGCUGAAGCUUCGUGCAC
B4: hsa-mir-3158-2 (structured_RNA)
RNA: GGGAGAUAGCGCUGCGGGAGCCUGUAUAGGUGUACGAAGUUUCAGCCCUUCCAAUACCUGUAAGCAGAAGGGCUGAAGCUUCGUGCAC
B5: hsa-mir-4435-1_4435-2 (structured_RNA)
RNA: GGGAAGAUGCAGAACUGACCUAUUACGGGGUGUACGAAGUUUCAGCGAGGGAUGAGUGCACUUCACCUGCGCUGAAGCUUCGUGCAC
B6: hsa-mir-1251 (structured_RNA)
RNA: GGGACCGCUCAAUCAAGCUUAAGUGCAGGGUGUACGAAGUUUCAGCGGCGCUUCUCCUUCUGAACAGAGCGCUGCUGAAGCUUCGUGCAC
B7: hsa-mir-6895 (structured_RNA)
RNA: GGGAACUGUUCGCCAAACGCCGGUUAAAGGUGUACGAAGUUUCAGCCACAGAGUAAGCAUCAAUAGCAUUGGCAAGUUGAACUGAGCUGUCGCUGAAGCUUCGUGCAC
B8: PARIS_ID1 (structured_RNA)
RNA: GGGAGGAGAUGCCUUUCCAGAAACCACGGGUGUACGAAGUUUCAGCAGCAUUUCUGAAUCUCCUAUCCAAUACAAAAACUAGGACAAUACAGACAGUAACUCCUAUGGUUACAAUGAACACUCCUGCUGAAGCUUCGUGCAC
B9: hsa-mir-4446 (structured_RNA)
RNA: GGGAUACCUCUAUCAUGAGACAACAGGCGGUGUACGAAGUUUCAGCCUUGGCUUCAAUUUACUCCCAGGGCUGAAGCUUCGUGCAC
B10: hsa-mir-4641 (structured_RNA)
RNA: GGGAACCGUUGAAGCAGGACUAAUCGUUGGUGUACGAAGUUUCAGCGGCAUCAGAGGACAGCCGCCUGGUGCCGCUGAAGCUUCGUGCAC
B11: hsa-mir-6792 (structured_RNA)
RNA: GGGAACCCCGGUUAUUUGAUGUACGGUUGGUGUACGAAGUUUCAGCGUGAUGUGAGGAGCAACAGGCACCCUCCUGCUGAAGCUUCGUGCAC
B12: NEAT1_ParasoR_ID14 (structured_RNA)
RNA: GGGAGGAACUAUCAACUAGGCUAGCGAGGGUGUACGAAGUUUCAGCGUGGUCCCACACCACGCUGAAGCUUCGUGCAC
B13: hsa-mir-641 (structured_RNA)
RNA: GGGAGCAUUGGUACAUGCGCUGAACUCAGGUGUACGAAGUUUCAGCCCUCUGUCCUCUGUCCUCUACCUAUAGAGGGCUGAAGCUUCGUGCAC
B14: hsa-mir-3150a (structured_RNA)
RNA: GGGACGAGCGCAUAGGGUUUAUCUCCACGGUGUACGAAGUUUCAGCUCAGCACCUGAACGCCAAGGCUGGGCUGAAGCUUCGUGCAC
B15: hsa-mir-4778 (structured_RNA)
RNA: GGGAGGAGAGCAUACACCGUCACUAUCUGGUGUACGAAGUUUCAGCAAGAGGUAAGAAGAAGUGAAGCCCUCUUGCUGAAGCUUCGUGCAC
B16: hsa-mir-219a-2 (structured_RNA)
RNA: GGGACAGCGGAUGGUUACCAUCAAUAGUGGUGUACGAAGUUUCAGCUUCUUGUACGAGUCUGCGGCCAACCGAGAAGCUGAAGCUUCGUGCAC
B17: hsa-mir-6821 (structured_RNA)
RNA: GGGAGACGAUGUAAUGAAAACCGAUGUCGGUGUACGAAGUUUCAGCGCGGGGGUGGGGGCCUCGCCCUGCUUGGGCCCUCCCUGACGCUGAAGCUUCGUGCAC
B18: PARIS_ID18 (structured_RNA)
RNA: GGGAACGGAUGGCUGUAUCCUCUGAAAUGGUGUACGAAGUUUCAGCUCACUGGUCUUGUAAUUAAAAUUCAAACACUAUAGAAAAAGGCCAUGUAGAGCUGAAGCUUCGUGCAC
B19: hsa-mir-3677 (structured_RNA)
RNA: GGGAAUGCACGACUGUACGAUUGAUCCUGGUGUACGAAGUUUCAGCUGCAGUGCUGGGCAUGGGCUUCUCGGCUGAAGCUUCGUGCAC
B20: hsa-mir-30c-2 (structured_RNA)
RNA: GGGACGAAUUGCCCAUCCCUAAAACCAGGGUGUACGAAGUUUCAGCUCAGCUGUGGAAAGUAAGAAAGCUGGGCUGAAGCUUCGUGCAC
B21: hsa-mir-1224 (structured_RNA)
RNA: GGGACGGCAGCCUUCAGUUCCUAGUCAAGGUGUACGAAGUUUCAGCGUGGAGGGUGGUGCCGCCGGGGCCGGGCGCUGUUUCAGCUCGCUUCUCCCCCCACGCUGAAGCUUCGUGCAC
B22: hsa-mir-621 (structured_RNA)
RNA: GGGACCGGAGUAAUGUCUAAACCGUGCAGGUGUACGAAGUUUCAGCUGCUCUGAUGAAGACCCAUGUGGCGCUGAAGCUUCGUGCAC

biological target: U1A (Homo sapiens, UniProt P09012); assay: FOREST: bead pull-down of RNA structure library v1, barcode microarray; U1A/LIN28A: 20 mM HEPES pH 7.5, 80 mM KCl, 20 mM NaCl, 10% glycerol, 2 mM DTT, 0.1 ug/uL BSA, 4 C; BG4/CIRBP/DHX36: 10 mM Tris-HCl pH 7.5, 100 mM KCl (or LiCl),; high values mean tight binding

Point of comparison: B11, binding signal 0.728 z-score. Against it:
- B1 — lower, 0.727 z-score
- B2 — lower, 0.707 z-score
- B3 — lower, 0.702 z-score
- B4 — lower, 0.714 z-score
- B5 — lower, 0.727 z-score
- B6 — lower, 0.719 z-score
- B7 — lower, 0.726 z-score
- B8 — higher, 2.24 z-score
- B9 — lower, 0.709 z-score
- B10 — lower, 0.707 z-score
- B12 — lower, 0.705 z-score
- B13 — lower, 0.707 z-score
- B14 — lower, 0.712 z-score
- B15 — higher, 0.729 z-score
- B16 — higher, 0.73 z-score
- B17 — lower, 0.722 z-score
- B18 — higher, 2.24 z-score
- B19 — lower, 0.705 z-score
- B20 — lower, 0.719 z-score
- B21 — lower, 0.725 z-score
- B22 — lower, 0.716 z-score

biological target: T1, LIN28A; assay: as above

Point of comparison: B2, binding signal 0.336 z-score. Against it:
- B1 — lower, -0.615 z-score
- B3 — lower, 0.227 z-score
- B4 — higher, 1.04 z-score
- B5 — higher, 0.627 z-score
- B6 — lower, -1.68 z-score
- B7 — lower, -0.745 z-score
- B8 — higher, 1.17 z-score
- B9 — lower, -0.271 z-score
- B10 — higher, 0.588 z-score
- B11 — higher, 0.589 z-score
- B12 — lower, -1.91 z-score
- B13 — lower, -0.635 z-score
- B14 — lower, -0.736 z-score
- B15 — higher, 1.69 z-score
- B16 — lower, -0.272 z-score
- B17 — higher, 1.02 z-score
- B18 — lower, 0.243 z-score
- B19 — lower, 0.229 z-score
- B20 — higher, 0.871 z-score
- B21 — lower, -0.105 z-score
- B22 — higher, 0.422 z-score

biological target: T2, CIRBP; assay: as above

Point of comparison: B2, binding signal -0.719 z-score. Against it:
- B1 — lower, -1.95 z-score
- B3 — higher, 0.465 z-score
- B4 — higher, -0.475 z-score
- B5 — higher, 0.117 z-score
- B6 — higher, -0.152 z-score
- B7 — higher, -0.508 z-score
- B8 — higher, 0.212 z-score
- B9 — higher, 0.601 z-score
- B10 — higher, 1.32 z-score
- B11 — higher, -0.206 z-score
- B12 — higher, -0.325 z-score
- B13 — higher, -0.164 z-score
- B14 — lower, -0.965 z-score
- B15 — higher, 1.98 z-score
- B16 — higher, -0.48 z-score
- B17 — higher, 0.399 z-score
- B18 — higher, 0.179 z-score
- B19 — higher, -0.15 z-score
- B20 — higher, -0.299 z-score
- B21 — lower, -1.85 z-score
- B22 — higher, 0.44 z-score

biological target: T3, DHX36; assay: as above

Point of comparison: B4, binding signal 0.564 z-score. Against it:
- B1 — lower, -0.839 z-score
- B2 — lower, -0.872 z-score
- B3 — lower, -0.124 z-score
- B5 — lower, 0.0108 z-score
- B6 — lower, -0.852 z-score
- B7 — lower, -0.655 z-score
- B8 — lower, -0.197 z-score
- B9 — lower, -1.48 z-score
- B10 — lower, 0.272 z-score
- B11 — lower, 0.292 z-score
- B12 — lower, -0.548 z-score
- B13 — lower, -0.771 z-score
- B14 — lower, -0.651 z-score
- B15 — higher, 0.719 z-score
- B16 — lower, -0.64 z-score
- B17 — higher, 1.48 z-score
- B18 — lower, 0.0392 z-score
- B19 — lower, 0.355 z-score
- B20 — lower, -0.556 z-score
- B21 — higher, 1.14 z-score
- B22 — lower, -0.397 z-score
